From patent US11267800B2, “Cyclohexyl acid triazole azines as LPA antagonists” (BRISTOL-MYERS SQUIBB COMPANY, priority 2017, dated 2022)

Protein sequences, listed by entry. Tags and fused reporters are not part of them.
UniProt Q92633, whole entry: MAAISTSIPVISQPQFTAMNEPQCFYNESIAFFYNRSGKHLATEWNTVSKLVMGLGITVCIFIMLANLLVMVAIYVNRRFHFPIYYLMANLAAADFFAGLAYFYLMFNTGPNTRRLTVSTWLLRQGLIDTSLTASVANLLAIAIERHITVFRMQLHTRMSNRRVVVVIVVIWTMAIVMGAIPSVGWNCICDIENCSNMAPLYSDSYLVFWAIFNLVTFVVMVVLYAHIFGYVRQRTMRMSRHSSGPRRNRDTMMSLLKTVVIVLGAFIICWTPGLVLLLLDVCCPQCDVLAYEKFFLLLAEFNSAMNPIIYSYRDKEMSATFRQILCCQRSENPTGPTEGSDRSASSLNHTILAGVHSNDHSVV

Molecular target: human LPA1 (Homo sapiens, UniProt Q92633)
Assay: LPA1 functional antagonist assay (calcium flux)
Assay type: cell-based

| Compound | IC50 [µM] |
| --- | --- |
| Cc1nc(-c2nnn(C)c2CNc2nccc(C(C)CC(F)(F)F)n2)ccc1O[C@H]1CCC[C@H](C(=O)O)C1 (stereo partly shown) | 0.067 |
| Cc1nc(-c2nnn(C)c2CNc2nccc(Nc3ccccc3)n2)ccc1O[C@H]1CCC[C@H](C(=O)O)C1 | 0.182 |
| Cn1nnc(-c2ccc(O[C@H]3CCC[C@H](C(=O)O)C3)cn2)c1CNc1nccc(-c2cccnc2)n1 [Example 32] | 1.21 |
| COc1cccc(-c2ccnc(NCc3c(-c4ccc(O[C@H]5CCC[C@H](C(=O)O)C5)c(C)n4)nnn3C)n2)c1 | 0.15 |
